23 compounds from PubChem BioAssay AID493084 (National Center for Advancing Translational Sciences (NCATS), 2011) can be followed below.

Amino acid sequences for entries named in this document (tags omitted).
UniProt P34981, whole entry: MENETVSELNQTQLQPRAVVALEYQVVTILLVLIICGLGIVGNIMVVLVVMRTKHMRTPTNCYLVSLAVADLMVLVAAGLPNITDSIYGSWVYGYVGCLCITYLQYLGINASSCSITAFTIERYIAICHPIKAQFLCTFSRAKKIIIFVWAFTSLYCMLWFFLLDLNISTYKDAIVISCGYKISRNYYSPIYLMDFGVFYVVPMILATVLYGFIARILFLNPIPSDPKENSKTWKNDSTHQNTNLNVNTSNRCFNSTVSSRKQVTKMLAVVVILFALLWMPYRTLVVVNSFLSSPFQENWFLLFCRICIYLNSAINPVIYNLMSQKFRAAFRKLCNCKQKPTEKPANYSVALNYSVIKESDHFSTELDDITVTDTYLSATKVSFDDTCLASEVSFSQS

The list shows a part of the results, in another mix than the full data. Calls of active or inactive are those of the source. Cut-off read from the data, not from the text of the source: active = activation above about 30%; inactive = the rest.

This experiment has as its target Thyrotropin-releasing hormone receptor (Homo sapiens) (UniProt P34981). Description: qHTS for Small Molecule Agonists and Allosteric Enhancers of Human TRH Receptor: Primary Screen for Agonists. Note: 0% is about no effect. The settings on record: TRHR cells, calcium flux fluo-8, FDSS agonist mode; at 2 µM; active compounds read high. The method, boiled down:
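Steps: seed TRHR cells overnight; add fluo-8 no-wash Ca dye, RT 30 min–1.5 h; record 10 s baseline; pin-transfer compounds; monitor fluorescence 1 cycle/s for the agonist window. Calcium increases flag candidate agonists.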
On to `COc1ccccc1OP(C)(=O)Nc1ccc(Br)cc1` (stereo not drawn), for which the activation is inactive: -0.0451%.
For `CCc1ccc(OP(C)(=O)O)cc1` the value was inactive: -1.15%; for `CP(=O)(Nc1ccccn1)Oc1ccccc1` (stereo not drawn), inactive: -2.2%.
For `COc1ccccc1OP(C)(=O)Nc1ccc(C)cc1C` (stereo not drawn) the value was inactive: -0.876%.
With `O=[N+]([O-])c1cc([N+](=O)[O-])c(Nc2ccccn2)c([N+](=O)[O-])c1`, the activation is inactive: 2.98%.
Regarding `Cc1c(NP(C)(=O)Oc2ccc(C(C)C)cc2)c(=O)n(-c2ccccc2)n1C` (stereo not drawn), the activation was inactive: -0.589%.
The result for `CC(C)c1ccc(OP(C)(=O)Nc2ccc(SC(F)(F)F)cc2)cc1` (stereo not drawn) reads inactive: 0.296%; that for `CP(=O)(Nc1ccccc1F)Oc1ccccc1` (stereo not drawn), inactive: 0.134%.
The result for `O=C(OCCN1CCN(CCOCc2ccccc2)CC1)C(O)(c1ccccc1)c1ccccc1` reads inactive: -0.526%.
For `COc1ccc(OP(C)(=O)Nc2ccc(SC(F)(F)F)cc2)cc1` (stereo not drawn) the value was inactive: 1.83%.
As for `CCOC(=O)c1ccc(NP(C)(=O)Oc2ccc(F)cc2)cc1` (stereo not drawn), the activation was inactive: 1%.
The result for `CCCCCOc1ccc(NP(C)(=O)Oc2ccc(Cl)cc2Cl)cc1` (stereo not drawn) reads inactive: 0.295%; that for `CP(=O)(Nc1ccccc1)Oc1ccc(F)cc1` (stereo not drawn), inactive: -0.299%; that for `CCN(CC)CCCOC(=O)C(O)(c1ccccc1)C1CCCCC1` (stereo not drawn), inactive: 0.191%.
`COc1ccc(NP(C)(=O)Oc2ccccc2OC)cc1` (stereo not drawn): the activation was inactive: 0.003%.
For `CN(C)CCOC(=O)C(O)(c1ccccc1)C1CCCCC1` (stereo not drawn) the value was inactive: 0.561%; for `COc1ccc(OP(C)(=O)Nc2cccc(Br)c2)cc1` (stereo not drawn), inactive: -0.512%.
For `Cc1cc(-c2cccc3ccccc23)c(C)cn1.O=[N+]([O-])c1cc([N+](=O)[O-])c(O)c([N+](=O)[O-])c1` the value was inactive: -1.44%; for `O=[N+]([O-])c1ccc(OP2(=O)COCCO2)cc1` (stereo not drawn), inactive: 1.13%; for `CCOP(C)(=S)SCC(=O)NC(C)(CC)C(=O)O` (stereo not drawn), inactive: 0.574%.
The result for `CP(=O)(Nc1ccc(SC(F)(F)F)cc1)Oc1ccc(F)cc1` (stereo not drawn) reads inactive: 0.862%; that for `Cc1ccccc1NP(C)(=O)Nc1ccccc1C`, inactive: -0.129%; that for `CP(=O)(Nc1ccc2c(c1)OCCO2)Oc1ccccc1` (stereo not drawn), inactive: -0.123%.
